PMC9015526, “Mass Spectrometric Assays Reveal Discrepancies in Inhibition Profiles for the SARS‐CoV‐2 Papain‐Like Protease” (Chemmedchem, 2022)

Assays:
SARS‐CoV‐2 PL^pro [1] = target: T1, SARS‐CoV‐2 PL^pro (Severe acute respiratory syndrome coronavirus 2, UniProt P0DTD1)
SARS‐CoV‐2 PL^pro [2] = target: T1, SARS‐CoV‐2 PL^pro; experiment: biochemical; conditions: SPE‐MS IC50

Compound	PL^pro inhibition in SPE‐MS assay (in words) (SARS‐CoV‐2 PL^pro [1])	IC50 (SARS‐CoV‐2 PL^pro [2])
Cc1ccc(-n2sc3ccccc3c2=O)cc1 [PBIT, 2‐(para‐tolyl)benzo[d]isothiazol‐3(2H)‐one]	inhibits PL^pro efficiently	
O=c1c2ccccc2[se]n1-c1ccccc1 [ebselen]	potently inhibit	
Cc1coc2c1C(=O)C(=O)c1c-2ccc2c(C)cccc12 [tanshinone I]	did not, at least efficiently, inhibit	> 50 µM
